Experiment: GSH arylation rate constants (NMR; UV-vis for fast warheads)
Format: physicochemical
From the text: We employed nuclear magnetic resonance (NMR) and UV–vis to quantify the reactivity of our 2-SP derivatives and other representative electrophiles (Figure 2) against cysteine. NMR allowed straightforward determination of reaction rate constants through dual monitoring of the consumption of the warhead and formation of the product by integration of their respective NMR signals (Figures S1–S3). It simultaneously provided a direct readout on reaction specificity and hydrolytic stability of the warhead. All measurements were carried out in KPi buffer in the presence of 5% d^6-dmso, which is generally well-tolerated by a wide range of proteins in in vitro studies. N-acetylcysteine methylester (NACME) and L-glutathione (GSH) are useful model cysteine nucleophiles for in vitro studies of electrophilic agents.[32] Mixing reference electrophile 2-methylsulfonylpyrimidine (4q) with NACME or GSH in a 1:10 ratio (pseudo-first-order conditions) allowed extraction of accurate and reproducible second order rate constants (k).
Figure 3 In vitro determination of electrophilic reactivity of compounds. […] All rate constants were calculated as an average of at least two independent measurements. […]
To establish an accurate structure–reactivity profile of 2-SP reagents, we systematically determined their reaction rate constants for the arylation of GSH by NMR, at pH 7.0 and 6.5. […]

## OB1OCc2ccccc21 [compound 23, reference compound]
  reactivity with GSH (in words): none

From PMC10515483, “Structure–Reactivity Studies of 2-Sulfonylpyrimidines Allow Selective Protein Arylation” (Bioconjugate Chemistry, 2023)
